According to the supplement of paper PMC12669032:
The entries are a selection whose mix differs from that of the whole data set.

Each compound was assayed on Akkermansia muciniphila (assay: growth AUC relative to DMSO control (median of replicates) (fraction); higher = more growth (less inhibition), active = hit call of the paper). Settings: 20 µM; 24 h;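 active = AUC reduced over 20% with Padj below 0.05 in at least 2 of 3 replicates; inactive = otherwise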.
Description: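 Anaerobic monocultures of 22 human gut bacterial strains grown at 37 °C in mGAM with 20 µM compound (1% DMSO), starting OD600 0.05. OD600 read hourly for 24 h. Value is the median of 3 biological replicates. Hit: >20% AUC reduction and Padj<0.05 in at least 2 of 3 replicates.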

| SMILES | growth AUC |
| --- | --- |
| CCOP(=S)(OCC)Oc1ncn(-c2ccccc2)n1 | inactive: 1.14 |
| CCOc1nc(C(Cl)(Cl)Cl)ns1 | inactive: 0.92 |
